# In patent US7186530B1, “Protein associated with cell stress response” (Chiron Corporation, priority 2000, dated 2007):
# Tested on: p46 hyperphosphorylation
# Assay: p46 (Nogo B) hyperphosphorylation after UVC irradiation in presence of inhibitors, Western blot with SC-54
# Type: cell-based, human
# Protocol: FIG. 5. […] Then cells were irradiated with 20 J/m^2 of UVC and lysed 30 minutes later. Whole cell lysates were separated on SDS-PAGE. SC-54 was used for Western Blotting.
# Cell culture and treatment. Normal human fibroblast IMR90 was purchased from American Type Culture Collection (Manassas, Va.). Cells were routinely cultured in Dulbecco's Modified Eagle's Medium (DMEM) containing 10% fetal bovine serum, 2 mM L-glutamine, 4.5 g/liter glucose, 100 units penicillin and 100 μg streptomycin at 37° C. under an atmosphere of 5% CO2. For UV irradiation, cells were washed twice with phosphate-buffered saline (PBS) and then irradiated with appropriate doses of UVC (254 nm). Fresh complete medium was added back and cells were lysed at appropriate times. For treatment with BPDE, cells were washed with PBS twice and fresh DMEM was added. BPDE was dissolved in anhydrous dimethyl sulfoxide (DMSO) and appropriate amount of BPDE solution was added to DMEM. Cells were lysed 30 minutes later.
# Western Blotting. Lysates prepared from equal number of cells were mixed with equal volume of 2× sample buffer (50 mM Tris.HCl, pH 6.9, 9% glycerol, 2.3% SDS, 0.1% bromophenol blue and 10% mecaptoethanol) and the proteins were separated on a SDS/polyacrylamide gel. The proteins were then electroblotted onto an Immobilon-P membrane (Millipore, Bedford, Mass.). […]
smiles,measurement,value
O=[N+]([O-])c1ccc(-c2nc(-c3ccncc3)c(-c3ccc(F)cc3)[nH]2)cc1 [PD169316],hyperphosphorylation of Nogo,abolished
same,p46 hyperphosphorylation,almost completely abolished
